# Test results: PubChem BioAssay AID720647 (Broad Institute, 2013)
# The entries are a selection whose mix differs from that of the whole data set. The source made the active and inactive calls.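 The calls were made as follows: active = drop in luminescence signal, shown as inhibition above about 50% in the replicate tests (limit read from the data, passing the limit was not always enough); inconclusive = probably only some replicates passing the limit; inactive = the rest.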
# Tested on: Drosophila bursicon receptor LGR2 (rickets)
# Assay: inhibitors of bursicon-induced LGR2 CRE-luciferase signal, primary screen, cell-based, HEK293, CRE-luciferase reporter, bursicon stimulation (AID 720647);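 also: agonist challenge used bursicon conditioned medium at about half maximal strength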
# Conditions: bursicon-stimulated, 4 h, at 9.99 µM, hits give high values
row,Compound,inhibition
1,CCCCn1nnnc1C(c1cccc(OC)c1OC)N1CCC(n2c(=O)[nH]c3ccccc32)CC1 (stereo not drawn),inactive: 23.8%
2,COc1cc(C(=O)NCC2(N3CCOCC3)CCCCC2)cc(OC)c1C,inactive: 6.6%
3,CCCCn1nnnc1C(c1ccccc1)N1CCC(n2c(=O)[nH]c3ccccc32)CC1 (stereo not drawn),inactive: 12.6%
4,O=C(NCC1(N2CCOCC2)CCCCC1)c1cc(Br)ccc1Cl,inactive: 12.8%
5,O=c1[nH]c2ccccc2n1C1CCN(C(c2cccs2)c2nnnn2C2CCCCC2)CC1 (stereo not drawn),inactive: 16.5%
6,O=c1[nH]c2ccccc2n1C1CCN(C(c2ccnc3ccccc23)c2nnnn2C2CCCC2)CC1 (stereo not drawn),inactive: -22.2%
7,COc1ccc(C(=O)NCC2(N3CCOCC3)CCCCC2)cc1OC,inactive: -12.5%
8,CN(C)C1(CNC(=O)c2cccc(C#N)c2)CCCCC1,inactive: -1.48%
9,Cc1cc(N(CCCl)CCCl)ccc1C=O,inactive: 5.05%
10,CCCN1CCC(Nc2cc(OC)cc(OC)c2)CC1,inactive: 3.93%
11,O=c1[nH]c2ccccc2n1C1CCN(C(c2ccccc2)c2nnnn2C2CCCC2)CC1 (stereo not drawn),inactive: 12.1%
12,C/C(N)=N\P(=O)(Oc1ccccc1)Oc1ccccc1,inactive: 14.9%
13,CC(C)(C)n1nnnc1C(c1cccc2ccccc12)N1CCC(n2c(=O)[nH]c3ccccc32)CC1 (stereo not drawn),inactive: 12.1%
14,CC(C)(C)OC(=O)N1CCC(N(C(=O)c2ccccc2)c2ccc(Cl)cc2)CC1,inactive: 17.9%
15,CCN1CCC(Nc2cccc(F)c2)CC1,inactive: 1.3%
16,COc1ccc(C(c2nnnn2C2CCCCC2)N2CCC(n3c(=O)[nH]c4ccccc43)CC2)cc1 (stereo not drawn),inactive: 10.1%
17,CC(C)(C)n1nnnc1C(c1ccnc2ccccc12)N1CCC(n2c(=O)[nH]c3ccccc32)CC1 (stereo not drawn),inactive: 11.9%
18,Cc1ccccc1NC1(C#N)CCN(Cc2ccccc2)CC1,inactive: 5.25%
19,CN(C)c1ccc(C(=O)NCC2(N3CCCCC3)CCCCC2)cc1,inactive: -0.098%

row,Compound,inhibition
1,Cn1c(=O)[nH]cc(N(CCCl)CCCl)c1=O,inactive: 6.6%
2,O=C(NCC1(N2CCCCC2)CCCCC1)c1ccco1,inactive: -12.1%
3,CCC(c1nnnn1C1CCCCC1)N1CCC(n2c(=O)[nH]c3ccccc32)CC1 (stereo not drawn),inactive: 5.34%
4,COc1cccc(C(c2nnnn2C2CCCCC2)N2CCC(n3c(=O)[nH]c4ccccc43)CC2)c1OC (stereo not drawn),inactive: 28.4%
5,CC(=O)N(c1ccccc1)C1CCNCC1,inactive: 8.2%
6,COc1cc(OC)cc(C(=O)NCC2(N3CCCCC3)CCCCC2)c1,inactive: 13.3%
7,O=c1[nH]c2ccccc2n1C1CCN(C(c2ccnc3ccccc23)c2nnnn2C2CCCCC2)CC1 (stereo not drawn),inactive: -13.1%
8,Fc1ccccc1NC1CCN(Cc2ccccc2)CC1,inactive: -4.72%
9,Cc1ccc(C(=O)NCC2(N3CCCCC3)CCCCC2)o1,inactive: 3.8%
10,COc1cccc(C(=O)N(c2cc(C)cc(C)c2)C2CCN(C(=O)OC(C)(C)C)CC2)c1,inactive: 5.82%
11,COc1cccc(C(c2nnnn2C2CCCC2)N2CCC(n3c(=O)[nH]c4ccccc43)CC2)c1OC (stereo not drawn),inactive: 2.21%
12,COc1cc(OC)cc(C(=O)NCC2(N3CCOCC3)CCCCC2)c1,inactive: 0.562%
13,CN1CCC(Nc2ccc(Cl)cc2)CC1,inactive: 7.04%
14,CN1CCC(Nc2ccc(F)c(Cl)c2)CC1,inactive: 3.09%
15,NN(c1ccccc1)C1CCN(CCc2ccccc2)CC1,inactive: 13.8%
16,O=C(O)C1(Nc2ccccc2)CCN(Cc2ccccc2)CC1,inactive: 2.11%
17,CC(C)(C)OC(=O)N1CCC(Nc2ccccc2)CC1,inactive: 18.7%
18,O=c1[nH]c2ccccc2n1C1CCN(C(c2cc3ccccc3o2)c2nnnn2C2CCCC2)CC1 (stereo not drawn),inactive: -3.12%
19,CCCOc1ccc(C(=O)NCC2(N(C)C)CCCCC2)cc1,inactive: -1.36%
